Where two headings read alike, the source gives them in different places.

The target in this assay is EGF-receptor kinase (EGF-RK) (Homo sapiens, UniProt P00533). As to conditions: PGT 10 μg/50 μl, EGF-RK 1 Unit/50 μl, EGF-RK buffer with Brij 35. As for the experimental part:
The quantity depends mainly on the volumes which are still to be pipetted, the buffer being intended to make the volume of the phosphorylation assay up to the total of 100 μl.
Then 10 μl of 10% (v/v) DMSO solution are added, or if a substance is to be tested for possible enzyme-modulating properties, 10 μl of a test substance, i.e. a possible inhibitor or activator, dissolved in 10% (v/v) of DMSO, are pipetted in.
If an enzymatic reaction is to take place, the enzyme is added at this stage.
Then the substrate is added. The amounts of the substrates Poly-(Glu, Tyr) 4:1, (SEQ ID NO.:2) M-2165 and (SEQ ID NO.:3) Raytide™ EL used are specified in each case.
The reaction of phosphorylation is started here by the addition of 10 μl of the 1 mM ATP solution.
The incubation time is 30 minutes at +30° C., for example.
After the end of the incubation period, 20 μl of antibody solution (1.6.) are pipetted in, for example. The receptor, in this case the antibody, is used in excess. The amount which corresponds to an excess can very easily be determined by anyone skilled in the art by means of experiments on binding to a sensor surface to which a substance with a receptor binding site is coupled, with increasing amounts of receptor. In the case of reactions of phosphorylation, increasing amounts of receptor are used with a constant amount of substrate and kinase.
The incubation time with the antibody may be, for example, 30 minutes at ambient temperature.
After the end of the incubation period 50 μl of incubation mixture are taken and pipetted into the prepared measuring cell with the sensor to whose surface is coupled a substance with a receptor binding site.
The layer thickness of the sensor is measured, for example, by Reflectometric Interference Spectroscopy (RIfS) using a SPEKOL 1100 simultaneous spectral photometer made by Messrs Zeiss Jena, modified according to Schmitt et al. 1997.
The receptor (in this case the antibody) is used in excess, so that even if there is a total enzymatic reaction (in this case phosphorylation) of the substrate at least a slight binding signal will still be obtained by the binding of the receptor (antibody) to the sensor surface.
The reaction of phosphorylation is started by the addition of ATP.
At the start of the experiment a control and a complete phosphorylation without the addition of inhibitor are carried out.

Tyrphostin 47: the Optical layer thickness (10^-4M inhibitor) stood at 2.344 nm; the Optical layer thickness (10^-5M inhibitor) is on record as 1.685 nm; the Optical layer thickness (10^-6M inhibitor) is on record as 0.847 nm; the Optical layer thickness (10^-7M inhibitor) was determined as 0.630 nm; the Optical layer thickness (10^-8M inhibitor) is 0.578 nm.

The values are drawn from patent publication US20050026219A1, “Process for label-free measurement of modified substrate” (Boehringer Ingelheim Pharma GmbH & Co. KG, priority 2001, published 2005).
